For data set [1], the system named is MX-1. Kind of data set: Cytotoxicity assay, MTT method, MX-1 cells. A general note: Tetrazolium dyes change colour on reduction, which living cells bring about.
The test system of data set [2] is WI-38. Briefly: Cytotoxicity assay, MTT method, WI-38 cells. As to conditions: read-out: Cytotoxicity (IC50, nM) WI-38; 72 hours of drug exposure at 37° C. under 5% CO2.
Data set [3] deals with ID-8. Kind of data set: Cytotoxicity assay, MTT method, ID-8 cells. The settings on record: read-out: Cytotoxicity (IC50, nM) ID-8, + GSH-OEt; 24 h of drug exposure, washing with DPBS, 48 hours incubation with 6 equivalents of glutathione-OEt.

This is an account of results in US10029014B2, “Synthesis of novel asymmetric bow-tie PAMAM dendrimer-based conjugates for tumor-targeting drug delivery” (priority 2013, dated 2018).

Where two headings read alike, the source gives them in different places.

As usually defined, the IC50 is the concentration that inhibits the measured activity by half. With “Biotin-PEG3-linker-SB-T-1214 [BLT-S (40)]”, the concentration for half-maximal inhibition (IC50) in data set [1] (read-out: Cytotoxicity (IC50, nM) MX-1, + GSH-OEt, 24 h of drug exposure, washing with DPBS, 48 hours incubation with 6 equivalents of glutathione-OEt) came to 1.52 ± 0.34 nM; in data set [1] (read-out: Cytotoxicity (IC50, nM) MX-1, 72 hours of drug exposure at 37° C. under 5% CO2), 26.7 nM; in data set [2] it was 519 ± 90.3 nM; in data set [3] it was 5.91 ± 0.32 nM.
